Ab-14 heavy chain CDR variants: yeast mating affinities

Data: MIT Lincoln Laboratory AlphaSeq set, Li et al. 2023, doi:10.1038/s41467-023-39022-2, as distributed in FLAb.

All variants were tested on one target, the spike HR2 peptide PDVDLGDISGINAS (SARS-CoV-2).

Parent: Ab-14, a human scFv built as VH, the linker GGGGSGGGGSGGGGS, VL. Only the CDRs of the heavy chain vary.
VH: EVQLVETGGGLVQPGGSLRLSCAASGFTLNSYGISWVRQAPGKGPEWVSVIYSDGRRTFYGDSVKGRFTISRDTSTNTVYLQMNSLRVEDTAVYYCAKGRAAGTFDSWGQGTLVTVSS
VL: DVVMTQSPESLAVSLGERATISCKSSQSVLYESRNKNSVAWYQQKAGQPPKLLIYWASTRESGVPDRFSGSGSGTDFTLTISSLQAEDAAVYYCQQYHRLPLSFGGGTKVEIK

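The parent was found by panning a naive human phage display library on the peptide. This is the validation round: designs drawn from the data on random variants, tested in the same kind of assay. Group labels follow the data file (Ctrl: baseline library sampled from a position-specific scoring matrix, with some repeated check sequences; GP: Gaussian process model; Gen: genetic algorithm; a sequence that several methods proposed may carry one label only). The assay is AlphaSeq: two haploid yeast populations carry antibody and antigen on their surface. After mating in shaken culture at 30 °C for 16 h, diploids were selected and their barcode pairs sequenced. A regression on co-assayed BCL2-family reference pairs converts the normalised counts of each replicate to an apparent Kd. The assay was run in six technical replicates.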

Variants are written as CDR1, CDR2 and CDR3 of the heavy chain (limits as in the source). Parent: GFTLNSYGIS, VIYSDGRRTFYGDSVK, GRAAGTFDS. Scale: log10 of Kd in nM, estimated from mating counts; low values are strong binders. "n.d." marks a missing value. The strain was present, yet no cells mated with the target were sequenced in that replicate, which points to weak or no binding. Empty control strains, which show no peptide, gave a signal in 1% of pairings with all heavy chain designs; the median was 2.08 and 95% of these signals were weaker than 0.84. No background was subtracted. For each scFv, signals with the empty controls are counted beside the result, with their mean in brackets.

CDR-H1	CDR-H2	CDR-H3	group	log10 Kd (nM) by replicate	control signals
GFTLNSYGIS	VIYSDGRRTFYDDSVK	GRACGTFDT	Ctrl	n.d. / n.d. / n.d. / n.d. / n.d. / n.d.	0/18
GFTLNEYGIS	VIYSDGRRTFYGDSVK	GGAAGAFFS	Ctrl	n.d. / n.d. / n.d. / n.d. / n.d. / n.d.	1/18 (1.51)
GFPLNSYGIS	VIYSDGRRTAYGDDVK	GRAAGRFDQ	Ctrl	n.d. / n.d. / n.d. / n.d. / n.d. / n.d.	0/18
GETLNSYGIS	VIYSDGRRTFYGDSVK	GHFAGTKDS	Ctrl	n.d. / n.d. / n.d. / n.d. / n.d. / n.d.	0/18
LFTLNEYGIS	VIYSDGRRTFYGDSVK	GREAGTFDS	Ctrl	n.d. / n.d. / 1.26 / 1.42 / n.d. / n.d.	0/18
GFSLNSYGIS	VIYSDGRRTKYHDDVK	GRVAGTFDS	Ctrl	n.d. / 0.54 / n.d. / 1.80 / n.d. / n.d.	0/18
GFTLNSYGIS	VIYSDGFRTFYGDRVK	GRAAGTFDS	Ctrl	n.d. / n.d. / n.d. / n.d. / n.d. / n.d.	0/18
GFTLNSYGIS	VIYSDGRRTFYHDSVV	GRLAGTFDS	Ctrl	1.37 / n.d. / 1.66 / 2.69 / 1.73 / 1.95	0/18
GFTLNEYGIS	VIYSDGQRTAYSDSVK	GRAAGTFDY	Ctrl	0.32 / 0.31 / 0.30 / 0.09 / 0.33 / 0.22	0/18
DFTLNSYGIS	VIYSDGRRTFYADSVK	GRAAGTFDS	Ctrl	1.36 / 1.90 / 1.23 / 1.34 / 1.59 / 2.11	0/18
GFTLNSYGIS	VIYSDGRRTAYGDSVK	GNHSAFFDS	Ctrl	1.21 / 0.74 / 1.26 / 0.78 / 0.86 / 1.11	0/18
GFTPASYGIS	VMYSDGRRTFYSDSVK	GWAAGTDDS	Ctrl	n.d. / n.d. / n.d. / n.d. / n.d. / n.d.	0/18
GFTLNSYGIS	VIYSDGRRTFYGDSTK	GYAAGTFDS	Ctrl	n.d. / n.d. / n.d. / n.d. / n.d. / n.d.	0/18
GFTLNSYGIS	VIYSDGRRTFYKDSVK	GKEAGTFDS	Ctrl+GP_Gen	0.64 / -0.14 / 0.32 / 0.82 / 0.69 / 0.97; 0.58 / 0.61 / 0.70 / -0.32 / 1.58 / 0.08	1/36 (3.67)
GFTIKEYGYS	VMYSDGRRTFYGDSVK	GQAAGTFDS	Ctrl	0.43 / 0.47 / 0.32 / 0.12 / 0.99 / 0.93	0/18
GFTLNEYGIS	VIYADGYRTFYGDSVK	GRAAGTFDS	Ctrl	0.01 / 0.41 / 1.12 / -0.14 / -0.19 / -0.28	0/18
GFTLNSYGIS	VICSDGRRTQYGDQVK	GRSAGTFDS	Ctrl	n.d. / n.d. / n.d. / n.d. / n.d. / n.d.	0/18
GRTLNSYGIS	VIYSDGRRTFYTDSVK	GRAAGTVDS	Ctrl	n.d. / n.d. / n.d. / n.d. / n.d. / n.d.	0/18
GFTLNSYGIS	VIYSDGIRTFYGDSVK	GKAAGTFDS	Ctrl	n.d. / 2.06 / n.d. / 1.77 / 2.06 / n.d.	0/18
GQKLNSYGIS	VIYSDGRRTFYGDSVK	GRNAGTTDS	Ctrl	n.d. / n.d. / n.d. / n.d. / n.d. / n.d.	0/18
GFTLNSYGIS	VIYSDGYRTFYGDSVK	GRAEGTFDS	Ctrl	n.d. / n.d. / n.d. / n.d. / n.d. / n.d.	0/18
GFTLNSYGIS	VIYSDGRRTFYNDSVK	GYVAGTFDS	Ctrl	1.08 / 0.70 / 1.59 / 0.72 / n.d. / 0.51	0/18
GFTLNSYGIS	VIYSDGRRTFYGDSVK	GEAADTFPS	Ctrl	n.d. / n.d. / n.d. / n.d. / n.d. / n.d.	0/18
GVKLNSYGIS	VIYSDGRRTFYGDSVK	GAAAGTFDS	Ctrl	n.d. / n.d. / n.d. / n.d. / n.d. / n.d.	1/18 (2.29)
GFTLNEYGIS	VIYSDGRRTFYGDSTK	GRAAGTFSS	Ctrl	n.d. / n.d. / n.d. / n.d. / n.d. / n.d.	0/18
TITLNSYGIS	VIYSDGRRTFYGDSVK	GRAAGTFDS	Ctrl	n.d. / n.d. / n.d. / n.d. / n.d. / n.d.	0/18
GFTLNEYGIS	VIYSDGRRTFYDDSVK	GRWASTFDS	Ctrl	2.30 / n.d. / 4.01 / 3.58 / 3.19 / 3.49	0/18
GFTLNSYGIS	VIYSDGRRTFYADEVK	GEQAGTFDS	Ctrl	0.68 / 0.69 / 0.68 / -0.24 / 1.01 / 0.99	0/18
GFTLMSYGIS	VISSDGRRTFYGDDVK	GWAAGTFPS	Ctrl	n.d. / n.d. / n.d. / n.d. / n.d. / n.d.	0/18
GFTLNSYGVS	VIYSDGRRTFYGDSQK	GAAAGIFDS	Ctrl	n.d. / n.d. / n.d. / n.d. / n.d. / n.d.	0/18
TFTLNSYGIS	VIYSDGRRTFYGDSVK	GREAGTFDW	Ctrl	n.d. / n.d. / 1.62 / n.d. / n.d. / n.d.	0/18
GFTLNEYGIS	VIYSDGRRTIYSDSVK	GRWAGTFDS	Ctrl	2.26 / 2.35 / n.d. / 1.45 / 1.97 / 1.42	1/18 (1.60)
GFTLNSYGIS	VIYSDGRRTFYGDKVK	GQAAGTFDQ	Ctrl	2.59 / 1.37 / 1.62 / 1.78 / 1.62 / 1.12	0/18
GFTLNSYGIS	VIYSDGLRVSYADSVK	GHAAGTFDS	Ctrl	n.d. / -0.72 / n.d. / n.d. / n.d. / n.d.	0/18
GFTLQSYGIS	VIYSDGRRTFYGDSVE	GRAQGTFDC	Ctrl	n.d. / n.d. / n.d. / n.d. / n.d. / n.d.	0/18
GFTLNSYGIS	VIYSDGRRTFYDDSVK	GRAAGTFDQ	Ctrl	n.d. / -0.08 / 1.17 / n.d. / n.d. / n.d.	0/18
GFTLLSYGIS	VIYSDGHRTFYTDSVK	GRAADTFDS	Ctrl	n.d. / n.d. / n.d. / n.d. / n.d. / n.d.	0/18
GFTLRQYGIS	VIYSDGRREFYSDSVK	GRAAGTFDS	Ctrl	n.d. / n.d. / 1.74 / 2.02 / 1.86 / n.d.	0/18
GFTLNSYGIS	VIYADGRRTFYLDFVK	GRLAGTFDS	Ctrl	n.d. / n.d. / n.d. / n.d. / n.d. / n.d.	0/18
GFTLNSYGIS	VIYSDFERTFYGDSVK	GRAAGTFDS	Ctrl	n.d. / n.d. / n.d. / n.d. / n.d. / n.d.	0/18

A selection of 6 entries from above:

CDR-H1,CDR-H2,CDR-H3,group,log10 Kd (nM) by replicate,control signals
GFTLNSYGIS,VIYSDGRRTFYNDSVK,GYVAGTFDS,Ctrl,1.08 / 0.70 / 1.59 / 0.72 / n.d. / 0.51,0/18
GFTLNSYGIS,VIYSDFERTFYGDSVK,GRAAGTFDS,Ctrl,n.d. / n.d. / n.d. / n.d. / n.d. / n.d.,0/18
GFTLNSYGIS,VIYSDGRRTFYGDSVK,GEAADTFPS,Ctrl,n.d. / n.d. / n.d. / n.d. / n.d. / n.d.,0/18
GFTPASYGIS,VMYSDGRRTFYSDSVK,GWAAGTDDS,Ctrl,n.d. / n.d. / n.d. / n.d. / n.d. / n.d.,0/18
GFTLNEYGIS,VIYADGYRTFYGDSVK,GRAAGTFDS,Ctrl,0.01 / 0.41 / 1.12 / -0.14 / -0.19 / -0.28,0/18
GFTLNSYGIS,VIYSDGRRTFYDDSVK,GRAAGTFDQ,Ctrl,n.d. / -0.08 / 1.17 / n.d. / n.d. / n.d.,0/18

Where one sequence has several entries in the source, the replicates are listed entry by entry, parted by semicolons. In the paper, a design with two or fewer of six values counts as a poor binder. Of ten entries with the parent sequence, four were seen in most replicates (averages 0.34 to 2.37), three in one and three in none, so single entries are noisy. The range of this assay differs from that of the first round, and the authors advise against merging the two.